Results taken from ChEMBL document CHEMBL1177709, “Molecular switch controlling the binding of anionic bile acid conjugates to human apical sodium-dependent bile acid transporter” (J Med Chem, 2010).

Target: T1, Ileal sodium/bile acid cotransporter (Homo sapiens, UniProt Q12908)
T1 sequence (Q12908 whole entry): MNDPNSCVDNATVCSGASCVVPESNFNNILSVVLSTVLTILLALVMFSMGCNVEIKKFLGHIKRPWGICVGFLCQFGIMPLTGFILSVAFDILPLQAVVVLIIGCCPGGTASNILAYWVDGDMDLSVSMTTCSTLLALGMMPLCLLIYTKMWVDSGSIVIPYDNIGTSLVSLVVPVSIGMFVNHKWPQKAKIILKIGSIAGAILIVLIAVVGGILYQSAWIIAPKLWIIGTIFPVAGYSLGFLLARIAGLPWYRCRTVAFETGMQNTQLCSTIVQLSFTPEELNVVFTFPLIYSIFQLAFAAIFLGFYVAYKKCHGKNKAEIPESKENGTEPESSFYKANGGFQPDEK
Experiment: Inhibition of human ASBT expressed in MDCK cells assessed as inhibition of [3H]taurocholic acid uptake after 10 mins by liquid scintillation counting
Type: cell-based
How it was run: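 Stably transfected hASBT-MDCK cells grown in DMEM with 10% FBS, penicillin/streptomycin and 1 mg/mL geneticin, seeded at 1.5 million/well, induced with 10mM sodium butyrate for 12-17 h before study on day 4. After HBSS washes, monolayers exposed 10 min at 37°C (shaking) to 2.5µM taurocholic acid with 0.5µCi/mL 3H-TCA plus conjugate (0-100 µM monoanions, 0-1000 µM dianions). Cells washed with chilled sodium-free buffer, lysed in NaOH, neutralized, counted.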

## CC(CCC(=O)NC(CCC(=O)Nc1ccccc1)C(=O)O)C1CCC2C3C(O)CC4CC(O)CCC4(C)C3CCC12C (stereo unspecified)
  Ki: 2010 nM
